Source: article PMC3175392, “Noninvasive In Vivo Quantification of Neutrophil Elastase Activity in Acute Experimental Mouse Lung Injury” (International Journal of Molecular Imaging, 2011)
Structures can show the parent of a compound that is named as a salt.

Target: T1, human NE (Homo sapiens, UniProt P08246)
T1 construct: purchased Innovative Research (Novi, MI)
T1 sequence (P08246 30-267): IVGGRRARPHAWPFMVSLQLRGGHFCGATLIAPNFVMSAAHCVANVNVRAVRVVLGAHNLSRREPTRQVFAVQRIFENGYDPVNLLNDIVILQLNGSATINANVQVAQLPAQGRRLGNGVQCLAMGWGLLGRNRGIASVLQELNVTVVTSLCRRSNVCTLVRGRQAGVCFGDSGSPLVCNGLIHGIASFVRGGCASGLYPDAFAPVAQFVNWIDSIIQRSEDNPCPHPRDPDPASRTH
Assay: Inhibition of NE680 cleavage by human NE
Assay type: biochemical

CC(C)(C)C(=O)Oc1ccc(S(=O)(=O)Nc2ccccc2C(=O)NCC(=O)O)cc1 [sivelestat, N-{2-[({4-[(2,2-dimethylpropanoyl)oxy]phenyl}sulfonyl)amino]benzoyl} glycine sodium salt, reference compound]
IC50 (NE680 0.5 μM as substrate, 30 min preincubation of enzyme with inhibitor, room temperature, read-out: IC50 on NE680 activation by human NE): 30 nM | IC50 of NE lower than that of human PR3 (ratio of IC50 human PR3 to NE): 23 times
